# Yeast mating assay 2: variants of the scFv Ab-95

Data: MIT Lincoln Laboratory AlphaSeq set, Engelhart et al. 2022, doi:10.1038/s41597-022-01779-4, as distributed in FLAb.

Antigen: PDVDLGDISGINAS, a 14-residue peptide of the SARS-CoV-2 spike HR2 region.

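Library AAYL52 holds single substitutions and randomly drawn double and triple substitutions in the CDRs. AlphaSeq pools MATa yeast showing the antibodies with MATalpha yeast showing the peptide. Pairs that bind mate more often; barcode pairs of the diploids are counted by sequencing. Scores were corrected for input abundance and mapped to Kd with protein pairs of known affinity run in the same pool. Mating was done three times.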

Each scFv is VH, the linker GGGGSGGGGSGGGGS, VL, as in the parent Ab-95, and differs from it in the CDRs of the light chain only.
VH: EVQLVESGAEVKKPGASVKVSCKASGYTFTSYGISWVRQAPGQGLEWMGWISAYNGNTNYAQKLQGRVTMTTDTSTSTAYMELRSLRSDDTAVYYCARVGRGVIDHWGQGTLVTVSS
VL: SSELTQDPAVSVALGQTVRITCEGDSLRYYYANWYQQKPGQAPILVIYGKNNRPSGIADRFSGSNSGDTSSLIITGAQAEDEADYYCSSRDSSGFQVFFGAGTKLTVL

The parent's light chain CDRs are EGDSLRYYYAN, GKNNRPS, SSRDSSGFQVF; each variant's own CDRs replace them letter for letter.
The Kd shown is the geometric mean over detected replicates; a lower Kd is a better binder.
Where no diploid with the target was found in any replicate, the entry reads "not detected": below detection, most likely a poor binder, though not proof of it.
Empty control strains, which show no peptide, gave a signal in 28% of pairings with library AAYL52; the median was 8.2 µM and 95% of these signals were weaker than 800 nM. No background was subtracted. For each scFv, signals with the empty controls are counted beside the result.
In this assay the parent's reference entry averaged 200 nM; its copy inside this library read 180 nM.

| CDR-L1 | CDR-L2 | CDR-L3 | apparent Kd | detected | empty controls |
|---|---|---|---|---|---|
| EGDSLRIYYAN | GKNNRPK | SSFDSSGFQVF | 41 µM | 1 of 3 | 2 of 9 |
| EGDSLRYYYAF | GKNNRPS | SSRDSIGFQVF | 10 µM | 2 of 3 | 3 of 9 |
| EGESLRYYYAC | GKNNRPS | SSRDISGFQVF | not detected | 0 of 3 | 3 of 9 |
| HGRSLRYYYAN | AKNNRPS | SSRDSSGFQVF | 3.0 µM | 3 of 3 | 4 of 9 |
| EGDELRCYYAN | GKNNRPS | SSEDSSGFQVF | not detected | 0 of 3 | 2 of 9 |
| EGDSLRYYYAN | GKVWRPS | SSRDNSGFQVF | not detected | 0 of 3 | 1 of 9 |
| EGDSLRPLYAN | GKNNRPS | SCRDSSGFQVF | 150 nM | 3 of 3 | 0 of 9 |
| EGDSLRYRYAN | GKNNRPS | LSRDSSGFQVF | 470 nM | 3 of 3 | 4 of 9 |
| WGFSLRYYYAN | GKNNRTS | SSRDSSGFQVF | 1.3 µM | 3 of 3 | 2 of 9 |
| LGDSLVYYYAN | GKNNRPS | SERDSSGFQVF | 4.7 µM | 1 of 3 | 3 of 9 |
| EGDNLRYYPAN | GKNNRIS | SSRDSSGFQVF | 2.0 µM | 3 of 3 | 4 of 9 |
| EGDSLRYYYAN | GLTNRIS | SSRDSSGFQVF | 48 µM | 2 of 3 | 3 of 9 |
| EIDSLRKYYAN | GKNNRPS | SSRDSEGFQVF | 1.0 µM | 3 of 3 | 2 of 9 |
| EGDSLDYYYGN | GKNNRPS | SSRDSSGFQGF | 4.3 µM | 2 of 3 | 4 of 9 |
| EGGSLPYYYAN | GKNNRWS | SSRDSSGFQVF | 1.8 µM | 3 of 3 | 4 of 9 |
| EGDSDRYYYVN | GWNNRPS | SSRDSSGFQVF | 7.9 µM | 3 of 3 | 4 of 9 |
| EGDSLRMYYAN | MKNNRPS | SSRDSIGFQVF | 700 nM | 2 of 3 | 2 of 9 |
| EGYSLRYYYRN | GKNNRPS | SSRDSSGFQLF | 16 µM | 1 of 3 | 1 of 9 |
| EGDSLQYYYWN | GKNNHPS | SSRDSSGFQVF | 400 µM | 1 of 3 | 3 of 9 |
| EGDSLRYYYIN | GKNNRPS | KSRDSSLFQVF | 130 nM | 3 of 3 | 1 of 9 |
| EGDSLYYEYAN | GKNNRPS | SSRDSFGFQVF | 1.1 µM | 1 of 3 | 0 of 9 |
| EGDSLRYYYAN | VKNNRPS | SSRDSTGPQVF | 5.8 µM | 1 of 3 | 1 of 9 |
| EGDSLRYYYAT | GKNNRCS | SSRDSSGFQVF | 14 µM | 1 of 3 | 0 of 9 |
| EGDWLRYYYAN | KKNNRIS | SSRDSSGFQVF | 8.1 µM | 3 of 3 | 2 of 9 |
| EGESLRYYYAN | GKNNRES | SSDDSSGFQVF | 620 nM | 3 of 3 | 3 of 9 |
| ELDSLRYYYAN | MKNPRPS | SSRDSSGFQVF | 8.7 µM | 2 of 3 | 3 of 9 |
| EGDSLRYYYAN | GKFNRPS | SSRDASGFQVR | 10 µM | 3 of 3 | 7 of 9 |
| EGDSLRYYNAN | GRNNRPS | SSGDSSGFQVF | 490 nM | 3 of 3 | 1 of 9 |
| EGDSDRSYYAN | GCNNRPS | SSRDSSGFQVF | 11 µM | 2 of 3 | 6 of 9 |
| EGDSLRYYVAN | GKNNRPS | SVRDSSGFQVF | 1.3 µM | 3 of 3 | 2 of 9 |
| EGDSLRYEYAY | GKNNRPS | SSRRSSGFQVF | 25 µM | 2 of 3 | 4 of 9 |
| EGDSLRYQYAN | GKNNRPS | SSNDSSGFQLF | 3.5 nM | 3 of 3 | 5 of 9 |
| EGDSLIYYYAN | GKNNRPS | SSRDSSGFNKF | 36 µM | 2 of 3 | 2 of 9 |
| EGDSLRYYYAN | GNNNRPS | YARDSSGFQVF | 130 nM | 3 of 3 | 3 of 9 |

The remaining entries, values ahead:

| apparent Kd | detected | empty controls | CDR-L1 | CDR-L2 | CDR-L3 |
|---|---|---|---|---|---|
| not detected | 0 of 3 | 4 of 9 | YGDLLRYYYAN | GKNNRPS | SSRDPSGFQVF |
| 36 µM | 2 of 3 | 4 of 9 | EGDSLRYYYAT | GKNARPS | SHRDSSGFQVF |
| 5.1 µM | 1 of 3 | 1 of 9 | EGDSMRYYYAF | GKNNRFS | SSRDSSGFQVF |
| 22 µM | 1 of 3 | 1 of 9 | EGDSLRYYYAN | GKINRPS | SSMDSSGFQVF |
| 1.1 µM | 3 of 3 | 6 of 9 | EGDYHRYYGAN | GKNNRPS | SSRDSSGFQVF |
| 460 nM | 3 of 3 | 2 of 9 | EGDSLRYYYAN | GKNNRPS | SSRDSSTFVVF |
| 450 nM | 3 of 3 | 6 of 9 | EGDSLRYYYAN | GKNSRPS | SSRDSSGSQVF |
| 2.7 µM | 1 of 3 | 3 of 9 | PGDSLSYYYAN | GKNNRPS | SSRDSSAFQVF |
| 52 µM | 1 of 3 | 6 of 9 | EYDSRWYYYAN | GKNNRPS | SSRDSSGFQVF |
| 1.6 µM | 2 of 3 | 0 of 9 | GDDSLRYYYAN | GKNNRPR | SSRDSSGFQVF |
| 330 nM | 3 of 3 | 2 of 9 | EGDSLRTPYAN | GKNNRPS | SSRDSFGFQVF |
| 3.5 µM | 3 of 3 | 3 of 9 | EGDSLRYYYAN | GKNNAPM | SSRDSAGFQVF |
| 500 µM | 1 of 3 | 2 of 9 | EGDSGRYYYAN | SKNNRSS | SSRDSSGFQVF |
| 190 µM | 1 of 3 | 1 of 9 | EGDSLRIYYAN | GKNNRPS | WSRTSSGFQVF |
| 4.8 µM | 3 of 3 | 2 of 9 | WGDSLAYYYAN | GKNNRPS | SSRDSGGFQVF |
| not detected | 0 of 3 | 1 of 9 | EGDSLRYYYAN | GKNNRPS | HSRYSKGFQVF |
| 2.2 µM | 2 of 3 | 4 of 9 | EGDSLRYYYAN | GKPNRPS | SSRDQSGFFVF |
| 320 nM | 3 of 3 | 6 of 9 | EGDSLRYYYAN | GKNNRPH | SSRDSSGFHVF |
| 120 nM | 3 of 3 | 3 of 9 | MGDSLRYYYAN | GKGNRPS | SSNDSSGFQVF |
| 4.8 µM | 2 of 3 | 4 of 9 | EGDSLRYYYAN | GKNNRPS | SSGDSSGFLMF |
| 12 µM | 1 of 3 | 1 of 9 | EGDSLRGYYAN | GKWNRPS | SSRDSSGFQTF |
| 6.8 µM | 2 of 3 | 3 of 9 | EGDSLRYYYAN | GKNNIPS | DSRDSSGFQVF |
| 15 µM | 3 of 3 | 3 of 9 | EGDSLYYYYFN | GKNDRPS | SSRDSSGFQVF |
| 50 µM | 1 of 3 | 1 of 9 | EGDSLRYWYAC | GKKNRPS | SSRDSSGFQVF |
| 3.4 µM | 2 of 3 | 2 of 9 | EGDSLRYYYAN | GKNNRPP | SSHDSSYFQVF |
| 1.8 µM | 3 of 3 | 3 of 9 | HGDSLRYYYAN | GKNNRPS | SSRDSSGFNVL |
| 160 nM | 3 of 3 | 0 of 9 | VGDSLRYYYAN | GKNNRPS | SSRDSYGFQVF |
| 79 µM | 2 of 3 | 4 of 9 | EGDSLRYYYMN | GKNLRPS | SSRDSSGFLVF |
| not detected | 0 of 3 | 2 of 9 | EGDSSRYYYAN | GKCNRPS | SQRDSSGFQVF |
| 1.9 µM | 2 of 3 | 1 of 9 | EGDSLGYYYAN | GKNNPPS | SSRYSSGFQVF |
| 720 nM | 3 of 3 | 2 of 9 | EGDSLRYYYAN | GKNNRPP | SSYDSSGFQVF |
| 19 µM | 2 of 3 | 2 of 9 | IGDSLRYYYAN | IKNNRPS | SSRDSSGFFVF |
| 4.1 µM | 2 of 3 | 2 of 9 | EGDSLRYYYWN | GKNNRPS | SSRDSAGFKVF |
| 120 nM | 3 of 3 | 1 of 9 | EGDSLRYYYAN | GKNNRVS | SMRDSSGGQVF |
| 15 µM | 3 of 3 | 6 of 9 | EGDSLRWYYAN | GKNNRPS | SSRDSSGFIVF |

The opening 4 entries, copied out:

CDR-L1	CDR-L2	CDR-L3	apparent Kd	detected	empty controls
EGDSLRIYYAN	GKNNRPK	SSFDSSGFQVF	41 µM	1 of 3	2 of 9
EGDSLRYYYAF	GKNNRPS	SSRDSIGFQVF	10 µM	2 of 3	3 of 9
EGESLRYYYAC	GKNNRPS	SSRDISGFQVF	not detected	0 of 3	3 of 9
HGRSLRYYYAN	AKNNRPS	SSRDSSGFQVF	3.0 µM	3 of 3	4 of 9